Values quoted from earlier work as cited in patent US20100286272A1, “Methods Of Use Of Nitroalkene Compositions In Dermatologic Applications” (priority 2009, published 2010).

Amino acid sequences for entries named in this document (tags omitted). Residues count along the entry.
UniProt P80457, 2-1332 limits assumed: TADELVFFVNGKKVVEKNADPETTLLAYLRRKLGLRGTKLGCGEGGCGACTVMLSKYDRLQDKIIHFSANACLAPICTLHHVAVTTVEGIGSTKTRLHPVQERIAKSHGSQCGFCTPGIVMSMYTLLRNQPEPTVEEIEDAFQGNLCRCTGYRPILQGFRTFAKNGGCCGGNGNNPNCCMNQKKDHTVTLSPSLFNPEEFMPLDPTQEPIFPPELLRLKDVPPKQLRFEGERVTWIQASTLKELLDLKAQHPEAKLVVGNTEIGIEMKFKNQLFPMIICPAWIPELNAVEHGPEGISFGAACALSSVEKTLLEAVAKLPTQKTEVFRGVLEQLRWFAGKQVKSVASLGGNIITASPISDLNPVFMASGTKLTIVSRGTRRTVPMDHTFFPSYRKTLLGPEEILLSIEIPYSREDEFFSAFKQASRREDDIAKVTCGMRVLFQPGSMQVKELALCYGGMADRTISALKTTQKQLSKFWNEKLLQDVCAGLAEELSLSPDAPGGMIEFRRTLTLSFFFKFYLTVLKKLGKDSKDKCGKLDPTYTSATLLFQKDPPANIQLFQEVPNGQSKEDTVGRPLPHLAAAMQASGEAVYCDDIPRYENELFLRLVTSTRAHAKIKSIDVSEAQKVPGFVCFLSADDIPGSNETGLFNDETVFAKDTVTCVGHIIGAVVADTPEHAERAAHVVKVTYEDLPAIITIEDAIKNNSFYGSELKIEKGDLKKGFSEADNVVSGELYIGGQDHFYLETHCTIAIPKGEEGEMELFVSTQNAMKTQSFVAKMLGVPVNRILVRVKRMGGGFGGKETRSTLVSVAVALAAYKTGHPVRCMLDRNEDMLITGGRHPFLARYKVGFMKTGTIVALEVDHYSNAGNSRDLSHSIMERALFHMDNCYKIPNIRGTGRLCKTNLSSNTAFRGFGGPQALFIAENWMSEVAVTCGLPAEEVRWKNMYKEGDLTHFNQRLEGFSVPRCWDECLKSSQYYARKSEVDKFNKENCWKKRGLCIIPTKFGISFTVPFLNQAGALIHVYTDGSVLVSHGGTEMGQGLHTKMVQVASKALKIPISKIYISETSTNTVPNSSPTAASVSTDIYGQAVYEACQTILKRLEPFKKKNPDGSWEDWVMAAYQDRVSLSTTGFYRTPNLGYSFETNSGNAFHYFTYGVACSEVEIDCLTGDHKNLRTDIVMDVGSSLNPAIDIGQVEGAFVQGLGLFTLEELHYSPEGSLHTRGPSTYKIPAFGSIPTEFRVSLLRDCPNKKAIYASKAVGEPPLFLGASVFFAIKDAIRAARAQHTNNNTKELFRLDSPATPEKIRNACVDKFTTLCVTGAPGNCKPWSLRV

Target: xanthine oxidoreductase (XOR) (Bos taurus, UniProt P80457)
Conditions: read-out: IC50 of xanthine oxidoreductase (XOR) activity inhibition; reported by Kelley et al., J Biol Chem, 2008

pIC50: 6.22
Structure (SMILES): CCCCCCCC/C(=C\CCCCCCCC(=O)O)[N+](=O)[O-]

pIC50: −log10 of the molar value.
